Test results from patent US20230089899A1, “METHOD FOR NON-TARGETED CHARACTERISATION OF A SOLUTION COMPRISING A PLURALITY OF SOLUTES” (COMMISSARIAT A L'ENERGIE ATOMIQUE ET AUX ENERGIES …, priority 2021, published 2023).

Settings: from the second row of partitions (N=2), mathematical processing for two species, 14C activity

## bisphenol A (BPA) marked with ^14C [^14C-BPA]
  log D^EXP: approximately 3
